Measured values from patent US20210179940A1, “WIDE TEMPERATURE RANGE AND HIGH PHOTOCHEMICAL STABILITY SMECTIC LIQUID CRYSTAL COMPOSITIONS WITH A MONOLAYER SMECTIC A PHASE (SMA1), METHOD OF OBTAINING THEREOF AND DEVICES UTILIZING THEREOF” (WOJSKOWA AKADEMIA TECHNICZNA, priority 2017, published 2021).

Assay: solubility of ionic compounds in fluorobenzene
Conditions: 25° C.
Description: Fluorobenzene was used as solvent because it is chemically similar to the liquid crystalline composition used here.
The examination was made in the following way: always the same mole amount of a ionic compound (0.00004 mol) was placed in 2 cm^3 of fluorobenzene. The mixture was mixed to dissolve the compound or to obtain equilibrium between the saturated solution and the solid. When a part of the compound was dissolved only, the sample of the saturated solution was taken (0.5 ml). The solvent was evaporated to dryness, the rest was weighted. Knowing the residue amount, the solubility was calculated.

Question: With “complex of 18-crown-6 ether with sodium dodecyl-1-sulphonate [V.e12]” as the substance, how does the “solubility in C6H5F” value read?
Answer: Its value is 0.019 mol/dcm^3.
